Laboratory results taken from ChEMBL document CHEMBL2010643 (Bioorg Med Chem Lett, 2012).

Sequences of proteins named here, by UniProt entry; tags and fusion partners are left off. A change or cut given only in a name is not applied to a line headed by its entry.
UniProt Q13177, whole entry: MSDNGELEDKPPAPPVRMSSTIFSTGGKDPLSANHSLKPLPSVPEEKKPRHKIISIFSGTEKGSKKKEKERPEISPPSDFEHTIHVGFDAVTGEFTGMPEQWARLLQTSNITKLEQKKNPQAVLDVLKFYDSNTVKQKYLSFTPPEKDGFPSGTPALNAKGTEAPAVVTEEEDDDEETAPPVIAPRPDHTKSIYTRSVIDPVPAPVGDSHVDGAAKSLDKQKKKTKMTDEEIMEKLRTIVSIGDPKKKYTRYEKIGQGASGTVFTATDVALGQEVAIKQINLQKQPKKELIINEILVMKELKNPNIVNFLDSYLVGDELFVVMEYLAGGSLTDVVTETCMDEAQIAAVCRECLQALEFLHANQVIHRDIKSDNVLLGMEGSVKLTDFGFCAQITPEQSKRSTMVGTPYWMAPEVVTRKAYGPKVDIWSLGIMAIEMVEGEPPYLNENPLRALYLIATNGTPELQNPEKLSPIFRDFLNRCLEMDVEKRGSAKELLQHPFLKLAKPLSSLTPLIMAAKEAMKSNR
UniProt Q96L34: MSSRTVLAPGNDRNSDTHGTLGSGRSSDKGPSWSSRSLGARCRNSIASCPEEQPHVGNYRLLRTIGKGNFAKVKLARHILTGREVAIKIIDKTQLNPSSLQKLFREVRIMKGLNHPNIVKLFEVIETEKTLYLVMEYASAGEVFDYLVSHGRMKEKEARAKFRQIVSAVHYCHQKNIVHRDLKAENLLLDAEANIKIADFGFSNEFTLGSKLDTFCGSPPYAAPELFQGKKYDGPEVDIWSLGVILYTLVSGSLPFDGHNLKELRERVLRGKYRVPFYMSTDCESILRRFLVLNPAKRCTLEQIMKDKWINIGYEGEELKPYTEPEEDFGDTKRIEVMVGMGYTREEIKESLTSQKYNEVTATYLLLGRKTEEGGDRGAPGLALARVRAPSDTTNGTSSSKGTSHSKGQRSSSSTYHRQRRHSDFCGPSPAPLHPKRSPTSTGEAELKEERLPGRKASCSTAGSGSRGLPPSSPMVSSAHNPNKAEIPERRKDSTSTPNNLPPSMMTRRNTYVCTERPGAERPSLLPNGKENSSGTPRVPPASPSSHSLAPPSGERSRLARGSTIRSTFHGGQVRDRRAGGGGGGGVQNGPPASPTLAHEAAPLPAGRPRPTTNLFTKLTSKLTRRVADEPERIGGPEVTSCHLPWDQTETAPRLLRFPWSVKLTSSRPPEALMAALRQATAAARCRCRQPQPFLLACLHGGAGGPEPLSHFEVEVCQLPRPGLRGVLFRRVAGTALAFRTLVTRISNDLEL
UniProt P27361, whole entry: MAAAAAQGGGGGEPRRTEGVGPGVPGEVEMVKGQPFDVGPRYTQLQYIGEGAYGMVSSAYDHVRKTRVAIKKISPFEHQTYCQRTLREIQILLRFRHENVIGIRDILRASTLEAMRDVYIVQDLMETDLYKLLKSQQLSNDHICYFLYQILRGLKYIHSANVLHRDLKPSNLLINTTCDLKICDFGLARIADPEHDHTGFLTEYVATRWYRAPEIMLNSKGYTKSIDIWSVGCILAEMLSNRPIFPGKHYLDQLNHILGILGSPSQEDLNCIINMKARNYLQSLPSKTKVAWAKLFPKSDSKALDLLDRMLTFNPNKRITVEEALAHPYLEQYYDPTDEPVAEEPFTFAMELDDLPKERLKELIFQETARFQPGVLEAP
UniProt O75116: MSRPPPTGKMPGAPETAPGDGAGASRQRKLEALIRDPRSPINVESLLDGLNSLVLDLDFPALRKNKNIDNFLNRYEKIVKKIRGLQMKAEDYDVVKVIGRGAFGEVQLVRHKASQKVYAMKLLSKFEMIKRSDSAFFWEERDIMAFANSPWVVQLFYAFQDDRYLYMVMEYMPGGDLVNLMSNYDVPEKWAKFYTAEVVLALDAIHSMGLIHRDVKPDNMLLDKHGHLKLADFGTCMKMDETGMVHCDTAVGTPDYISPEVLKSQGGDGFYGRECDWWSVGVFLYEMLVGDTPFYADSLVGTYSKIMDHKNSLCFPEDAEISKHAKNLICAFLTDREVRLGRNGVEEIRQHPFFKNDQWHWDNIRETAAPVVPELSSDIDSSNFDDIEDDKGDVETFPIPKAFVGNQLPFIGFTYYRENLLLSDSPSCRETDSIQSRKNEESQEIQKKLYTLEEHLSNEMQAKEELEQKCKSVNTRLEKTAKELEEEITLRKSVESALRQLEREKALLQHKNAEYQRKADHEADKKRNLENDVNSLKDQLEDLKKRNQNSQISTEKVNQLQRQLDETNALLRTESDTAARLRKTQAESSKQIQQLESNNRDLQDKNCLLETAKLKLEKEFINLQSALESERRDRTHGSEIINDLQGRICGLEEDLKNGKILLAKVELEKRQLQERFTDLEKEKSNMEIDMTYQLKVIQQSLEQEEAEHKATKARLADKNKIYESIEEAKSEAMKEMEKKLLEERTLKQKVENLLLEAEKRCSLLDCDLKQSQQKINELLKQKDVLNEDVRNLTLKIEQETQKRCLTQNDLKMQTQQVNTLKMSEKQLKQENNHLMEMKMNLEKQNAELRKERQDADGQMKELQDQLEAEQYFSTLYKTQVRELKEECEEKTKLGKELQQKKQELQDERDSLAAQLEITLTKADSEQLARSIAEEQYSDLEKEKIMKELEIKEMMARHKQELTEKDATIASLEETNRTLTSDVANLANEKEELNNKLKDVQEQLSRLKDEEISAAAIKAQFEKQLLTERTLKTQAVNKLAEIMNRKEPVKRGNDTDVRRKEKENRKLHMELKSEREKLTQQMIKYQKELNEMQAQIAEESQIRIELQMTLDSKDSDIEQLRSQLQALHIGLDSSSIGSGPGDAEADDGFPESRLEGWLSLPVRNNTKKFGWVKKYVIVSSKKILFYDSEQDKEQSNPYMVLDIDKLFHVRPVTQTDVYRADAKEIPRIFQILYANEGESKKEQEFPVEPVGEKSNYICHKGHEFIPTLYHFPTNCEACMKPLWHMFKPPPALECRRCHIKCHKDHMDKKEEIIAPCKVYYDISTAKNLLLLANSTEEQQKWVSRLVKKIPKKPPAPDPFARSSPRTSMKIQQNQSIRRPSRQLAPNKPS
UniProt P53779: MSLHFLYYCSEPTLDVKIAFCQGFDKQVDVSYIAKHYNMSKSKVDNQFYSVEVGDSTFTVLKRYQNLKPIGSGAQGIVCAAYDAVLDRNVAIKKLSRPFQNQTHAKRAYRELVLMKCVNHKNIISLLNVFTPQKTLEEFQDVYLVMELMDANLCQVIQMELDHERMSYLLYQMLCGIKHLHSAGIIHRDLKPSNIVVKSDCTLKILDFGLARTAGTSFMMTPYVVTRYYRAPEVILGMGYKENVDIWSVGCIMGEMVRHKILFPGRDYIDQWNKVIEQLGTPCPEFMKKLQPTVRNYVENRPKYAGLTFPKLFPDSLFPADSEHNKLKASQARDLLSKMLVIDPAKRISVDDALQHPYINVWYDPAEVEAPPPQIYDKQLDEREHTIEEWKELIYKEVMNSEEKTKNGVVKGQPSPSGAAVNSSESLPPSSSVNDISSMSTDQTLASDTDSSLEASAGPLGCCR
UniProt P45983: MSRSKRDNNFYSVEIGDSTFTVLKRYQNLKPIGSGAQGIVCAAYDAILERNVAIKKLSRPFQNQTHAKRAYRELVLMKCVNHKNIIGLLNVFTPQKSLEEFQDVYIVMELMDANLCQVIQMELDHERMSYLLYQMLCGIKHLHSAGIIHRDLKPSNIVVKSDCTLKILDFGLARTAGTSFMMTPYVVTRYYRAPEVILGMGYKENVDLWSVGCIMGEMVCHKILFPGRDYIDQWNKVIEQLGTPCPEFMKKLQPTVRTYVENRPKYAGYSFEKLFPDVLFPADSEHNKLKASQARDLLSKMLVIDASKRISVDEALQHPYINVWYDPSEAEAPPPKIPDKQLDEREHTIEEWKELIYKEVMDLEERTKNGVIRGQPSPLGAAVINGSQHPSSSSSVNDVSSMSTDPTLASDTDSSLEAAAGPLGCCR
UniProt O14965: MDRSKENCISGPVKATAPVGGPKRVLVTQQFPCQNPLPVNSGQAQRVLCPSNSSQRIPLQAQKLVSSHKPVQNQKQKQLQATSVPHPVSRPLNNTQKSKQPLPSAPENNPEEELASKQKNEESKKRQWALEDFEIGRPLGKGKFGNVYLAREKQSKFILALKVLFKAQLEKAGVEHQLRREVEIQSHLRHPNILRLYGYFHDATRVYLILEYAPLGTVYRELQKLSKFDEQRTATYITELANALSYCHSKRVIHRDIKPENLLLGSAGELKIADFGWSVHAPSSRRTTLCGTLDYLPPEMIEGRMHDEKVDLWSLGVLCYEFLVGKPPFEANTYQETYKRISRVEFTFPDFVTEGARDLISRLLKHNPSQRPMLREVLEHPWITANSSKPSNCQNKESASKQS
UniProt Q15759, whole entry: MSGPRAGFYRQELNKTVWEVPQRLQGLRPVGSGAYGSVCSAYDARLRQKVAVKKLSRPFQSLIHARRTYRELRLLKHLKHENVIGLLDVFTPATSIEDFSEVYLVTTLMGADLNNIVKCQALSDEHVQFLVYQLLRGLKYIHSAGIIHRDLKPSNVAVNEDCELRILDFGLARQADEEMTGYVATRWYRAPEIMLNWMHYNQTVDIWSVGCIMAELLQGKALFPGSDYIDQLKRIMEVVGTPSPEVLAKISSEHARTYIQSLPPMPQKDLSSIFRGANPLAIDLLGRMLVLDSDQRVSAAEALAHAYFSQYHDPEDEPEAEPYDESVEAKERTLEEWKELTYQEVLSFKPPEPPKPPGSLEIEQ
UniProt Q14012: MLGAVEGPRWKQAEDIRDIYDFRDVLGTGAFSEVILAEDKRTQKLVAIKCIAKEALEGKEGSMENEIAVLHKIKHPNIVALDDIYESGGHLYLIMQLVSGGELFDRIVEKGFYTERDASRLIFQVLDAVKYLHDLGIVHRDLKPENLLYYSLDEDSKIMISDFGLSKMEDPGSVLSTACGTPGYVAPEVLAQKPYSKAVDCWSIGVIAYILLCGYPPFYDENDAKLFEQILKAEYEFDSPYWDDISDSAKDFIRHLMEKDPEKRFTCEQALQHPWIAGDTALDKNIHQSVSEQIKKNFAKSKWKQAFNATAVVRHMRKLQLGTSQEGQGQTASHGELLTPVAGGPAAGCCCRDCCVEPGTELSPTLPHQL
UniProt Q8N4C8: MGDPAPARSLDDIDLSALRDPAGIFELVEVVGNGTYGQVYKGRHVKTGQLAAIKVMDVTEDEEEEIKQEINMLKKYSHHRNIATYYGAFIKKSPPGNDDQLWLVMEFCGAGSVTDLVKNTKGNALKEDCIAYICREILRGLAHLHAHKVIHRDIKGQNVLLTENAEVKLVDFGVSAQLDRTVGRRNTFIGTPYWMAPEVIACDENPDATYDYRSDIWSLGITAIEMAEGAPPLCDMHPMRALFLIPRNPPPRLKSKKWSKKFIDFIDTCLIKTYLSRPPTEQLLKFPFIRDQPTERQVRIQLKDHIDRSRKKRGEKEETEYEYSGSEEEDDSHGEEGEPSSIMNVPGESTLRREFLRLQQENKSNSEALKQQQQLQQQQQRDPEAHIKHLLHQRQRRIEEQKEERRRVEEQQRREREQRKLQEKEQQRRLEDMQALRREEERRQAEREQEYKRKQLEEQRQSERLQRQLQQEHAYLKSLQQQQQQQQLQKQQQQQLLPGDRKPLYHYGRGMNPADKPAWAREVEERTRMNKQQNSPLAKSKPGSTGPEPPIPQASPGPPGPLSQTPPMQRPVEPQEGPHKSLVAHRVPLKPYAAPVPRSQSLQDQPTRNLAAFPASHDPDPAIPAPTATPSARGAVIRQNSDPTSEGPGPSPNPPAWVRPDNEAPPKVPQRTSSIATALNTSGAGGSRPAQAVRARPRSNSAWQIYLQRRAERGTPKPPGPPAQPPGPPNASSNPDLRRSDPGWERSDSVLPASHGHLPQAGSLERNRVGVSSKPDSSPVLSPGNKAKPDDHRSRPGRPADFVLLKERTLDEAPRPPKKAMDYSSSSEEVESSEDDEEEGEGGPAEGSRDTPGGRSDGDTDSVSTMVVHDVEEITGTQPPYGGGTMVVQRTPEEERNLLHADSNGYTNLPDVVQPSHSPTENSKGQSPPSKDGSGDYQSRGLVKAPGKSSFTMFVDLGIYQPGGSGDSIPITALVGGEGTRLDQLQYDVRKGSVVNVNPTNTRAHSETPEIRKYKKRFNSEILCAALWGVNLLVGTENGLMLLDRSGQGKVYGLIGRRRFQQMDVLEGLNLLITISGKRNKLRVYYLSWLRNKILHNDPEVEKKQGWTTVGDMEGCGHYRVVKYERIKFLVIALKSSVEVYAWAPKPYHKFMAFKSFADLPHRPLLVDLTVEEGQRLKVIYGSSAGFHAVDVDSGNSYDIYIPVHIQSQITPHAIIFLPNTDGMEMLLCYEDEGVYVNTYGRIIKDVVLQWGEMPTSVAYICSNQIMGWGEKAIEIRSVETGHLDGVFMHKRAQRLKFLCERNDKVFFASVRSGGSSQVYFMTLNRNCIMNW

Tests used:
[1] = target: Ephrin type-A receptor 4 (Homo sapiens) (UniProt P54764); test: Inhibition of EPH-A4 assessed as residual activity at 1 uM relative to control
[2] = target: Protein kinase C gamma type (Homo sapiens) (UniProt P05129); test: Inhibition of PKCgamma assessed as residual activity at 10 uM relative to control
[3] = target: Dual specificity tyrosine-phosphorylation-regulated kinase 1A (Homo sapiens) (UniProt Q13627); test: Inhibition of DYRK1A assessed as residual activity at 10 uM relative to control
[4] = target: Serine/threonine-protein kinase tousled-like 1 (Homo sapiens) (UniProt Q9UKI8); test: Inhibition of TLK1 assessed as residual activity at 10 uM relative to control
[5] = target: Ephrin type-B receptor 4 (Homo sapiens) (UniProt P54760); test: Inhibition of EPH-B4 assessed as residual activity at 1 uM relative to control
[6] = target: Dual specificity tyrosine-phosphorylation-regulated kinase 3 (Homo sapiens) (UniProt O43781); test: Inhibition of DYRK3 assessed as residual activity at 10 uM relative to control
[7] = target: Serine/threonine-protein kinase PAK 2 (Homo sapiens) (UniProt Q13177); test: Inhibition of PAK2 assessed as residual activity at 10 uM relative to control
[8] = target: MAP/microtubule affinity-regulating kinase 4 (Homo sapiens) (UniProt Q96L34); test: Inhibition of MARK4 assessed as residual activity at 10 uM relative to control
[9] = target: MAP kinase-interacting serine/threonine-protein kinase 1 (Homo sapiens) (UniProt Q9BUB5); test: Inhibition of MNK1 assessed as residual activity at 1 uM relative to control
[10] = target: MAP kinase-activated protein kinase 3 (Homo sapiens) (UniProt Q16644); test: Inhibition of MAPKAP-K3 assessed as residual activity at 1 uM relative to control
[11] = target: Mitogen-activated protein kinase 3 (Homo sapiens) (UniProt P27361); test: Inhibition of ERK1 assessed as residual activity at 10 uM relative to control
[12] = target: Rho-associated protein kinase 2 (Homo sapiens) (UniProt O75116); test: Inhibition of ROCK 2 assessed as residual activity at 10 uM relative to control
[13] = target: Protein kinase C zeta type (Homo sapiens) (UniProt Q05513); test: Inhibition of PKCzeta assessed as residual activity at 10 uM relative to control
[14] = target: Mitogen-activated protein kinase 10 (Homo sapiens) (UniProt P53779); test: Inhibition of JNK3 assessed as residual activity at 10 uM relative to control
[15] = target: Inhibitor of nuclear factor kappa-B kinase subunit epsilon (Homo sapiens) (UniProt Q14164); test: Inhibition of IKKepsilon assessed as residual activity at 1 uM relative to control
[16] = target: Mitogen-activated protein kinase 9 (Homo sapiens) (UniProt P45984); test: Inhibition of JNK2 assessed as residual activity at 10 uM relative to control
[17] = target: Ephrin type-B receptor 3 (Homo sapiens) (UniProt P54753); test: Inhibition of EPH-B3 assessed as residual activity at 10 uM relative to control
[18] = target: Homeodomain-interacting protein kinase 1 (Homo sapiens) (UniProt Q86Z02); test: Inhibition of HIPK1 assessed as residual activity at 1 uM relative to control
[19] = target: Mitogen-activated protein kinase 8 (Homo sapiens) (UniProt P45983); test: Inhibition of JNK1 assessed as residual activity at 1 uM relative to control
[20] = target: Homeodomain-interacting protein kinase 2 (Homo sapiens) (UniProt Q9H2X6); test: Inhibition of HIPK2 assessed as residual activity at 10 uM relative to control
[21] = target: Aurora kinase A (Homo sapiens) (UniProt O14965); test: Inhibition of Aurora A assessed as residual activity at 1 uM relative to control
[22] = target: Mitogen-activated protein kinase 1 (Homo sapiens) (UniProt P28482); test: Inhibition of ERK2 assessed as residual activity at 10 uM relative to control
[23] = target: Serine/threonine-protein kinase MARK1 (Homo sapiens) (UniProt Q9P0L2); test: Inhibition of MARK1 assessed as residual activity at 1 uM relative to control
[24] = target: Dual specificity testis-specific protein kinase 1 (Homo sapiens) (UniProt Q15569); test: Inhibition of TESK1 assessed as residual activity at 1 uM relative to control
[25] = target: Mitogen-activated protein kinase 11 (Homo sapiens) (UniProt Q15759); test: Inhibition of p38beta MAPK assessed as residual activity at 10 uM relative to control
[26] = target: Calcium/calmodulin-dependent protein kinase type 1 (Homo sapiens) (UniProt Q14012); test: Inhibition of CAMK1 assessed as residual activity at 1 uM relative to control
[27] = target: Aurora kinase B (Homo sapiens) (UniProt Q96GD4); test: Inhibition of Aurora B assessed as residual activity at 1 uM relative to control
[28] = target: Serine/threonine-protein kinase BRSK2 (Homo sapiens) (UniProt Q8IWQ3); test: Inhibition of BRSK2 assessed as residual activity at 10 uM relative to control
[29] = target: Misshapen-like kinase 1 (Homo sapiens) (UniProt Q8N4C8); test: Inhibition of MINK1 assessed as residual activity at 1 uM relative to control
[30] = target: Ribosomal protein S6 kinase alpha-3 (Homo sapiens) (UniProt P51812); test: Inhibition of RSK2 assessed as residual activity at 10 uM relative to control

COc1cc(N2CCC(N3CCN(C)CC3)CC2)ccc1Nc1ncc(Cl)c(Nc2ccccc2S(=O)(=O)C(C)C)n1 [TAE-684]
Activity [1]: 52%
Activity [2]: 101%
Activity [3]: 77%
Activity [4]: 114%
Activity [5]: 73%
Activity [6]: 94%
Activity [7]: 57%
Activity [8]: 19%
Activity [9]: 106%
Activity [10]: 94%
Activity [11]: 53%
Activity [12]: 40%
Activity [13]: 99%
Activity [14]: 38%
Activity [15]: 89%
Activity [16]: 62%
Activity [17]: 26%
Activity [18]: 105%
Activity [19]: 87%
Activity [20]: 89%
Activity [21]: 15%
Activity [22]: 40%
Activity [23]: 36%
Activity [24]: 120%
Activity [25]: 92%
Activity [26]: 94%
Activity [27]: 114%
Activity [28]: 11%
Activity [29]: 72%
Activity [30]: 15%
